Measured values from US10183013B2, “Cyclic sulfonamide containing derivatives as inhibitors of hedgehog signaling pathway” (NantBioScience, Inc., priority 2012, dated 2019).

By UniProt entry, the sequences of proteins in these tests, tags left out. Residues count along the entry.
UniProt Q99835, 28-787 limits assumed: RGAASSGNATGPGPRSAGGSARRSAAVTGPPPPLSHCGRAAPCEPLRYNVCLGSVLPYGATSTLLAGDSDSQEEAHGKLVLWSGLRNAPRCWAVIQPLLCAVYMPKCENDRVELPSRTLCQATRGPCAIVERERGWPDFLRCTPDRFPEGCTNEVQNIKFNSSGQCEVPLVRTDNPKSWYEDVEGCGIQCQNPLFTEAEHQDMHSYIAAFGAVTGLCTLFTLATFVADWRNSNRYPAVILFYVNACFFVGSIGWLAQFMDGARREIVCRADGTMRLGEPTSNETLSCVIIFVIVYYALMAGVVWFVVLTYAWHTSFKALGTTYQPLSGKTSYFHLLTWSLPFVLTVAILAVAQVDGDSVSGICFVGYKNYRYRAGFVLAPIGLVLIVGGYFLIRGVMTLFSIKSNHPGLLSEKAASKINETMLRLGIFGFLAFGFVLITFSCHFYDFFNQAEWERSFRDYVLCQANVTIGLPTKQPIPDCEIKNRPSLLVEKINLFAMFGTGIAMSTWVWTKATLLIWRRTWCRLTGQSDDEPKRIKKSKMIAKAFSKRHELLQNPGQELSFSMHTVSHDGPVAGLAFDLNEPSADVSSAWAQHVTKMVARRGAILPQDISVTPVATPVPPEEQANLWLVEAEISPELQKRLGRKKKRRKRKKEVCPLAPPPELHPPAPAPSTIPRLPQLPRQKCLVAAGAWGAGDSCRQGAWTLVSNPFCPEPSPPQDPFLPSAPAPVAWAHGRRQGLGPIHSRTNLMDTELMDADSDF

Key:
[1] = test system: Hedgehog signalling (Gli-bla NIH3T3 cells, mShh stimulated); test: Hedgehog signalling inhibition assay (Gli-Bla reporter assay in NIH 3T3 cells)
SMO = SMO (Homo sapiens, UniProt Q99835); test: SMO BODIPY-CYC binding assay using HEK293H cells
[2] = test system: Ptch+/-p53-/- mice tumors (MB); test: Anti-tumor activity in Ptch+/-p53-/- mice (medulloblastoma model)
[3] = assay not given, fits BODIPY-CYC values of Table 2

Structure (SMILES): O=C(Nc1cc(NC(=O)c2ccc(N3CCCS3(=O)=O)cc2Cl)ccc1Cl)c1cccc(Cl)c1 [Example 120]
- greater potency than either GDC-0449 or Sant-I ([1]; Gli-Bla assay): 3 orders of magnitude
- EC50 ([1]; read-out: Gli-Bla reporter assay (EC50), NIH 3T3 cells): 5 pM
- increase in potency over GOC-0449 (SMO; [3]): 5 fold
- potency compared with Sant-I (SMO; [3]): approximately equivalent potency to Sant-I
- EC50 (SMO; read-out: BODIPY-CYC binding assay (EC50), HEK293H cells): 773 pM
- activity against MB formation [2]: highly active against MB formation
- anti-tumor activity (tumor size) ([2]; FIG. 3): anti-tumor activity
- degree of anti-tumor activity compared with GDC-0449 ([2]; relative tumor size at day 7, FIG. 5): greater than that of GDC-0449
